Antibody variant affinities, Ab-91 heavy chain, assay 2

Binding partner: SARS-CoV-2 spike HR2 peptide, sequence PDVDLGDISGINAS.

The variants keep the light chain, the linker and the frameworks of Ab-91 (scFv order VL, three GGGGS repeats, VH).
VL: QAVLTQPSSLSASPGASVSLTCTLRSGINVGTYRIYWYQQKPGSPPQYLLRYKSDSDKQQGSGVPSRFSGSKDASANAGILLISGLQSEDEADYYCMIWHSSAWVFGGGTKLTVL
VH: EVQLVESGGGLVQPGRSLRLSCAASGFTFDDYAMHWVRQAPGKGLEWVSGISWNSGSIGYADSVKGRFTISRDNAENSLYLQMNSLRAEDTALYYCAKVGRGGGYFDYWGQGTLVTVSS

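Library AAYL51 holds single substitutions and randomly drawn double and triple substitutions in the CDRs. In AlphaSeq, yeast of one mating type display the scFv and yeast of the other type display the target. Pairs that bind mate more often; barcode pairs of the diploids are counted by sequencing. The ratio of observed to expected reads was calibrated, replicate by replicate, on BCL2-family standards whose Kd was known from biolayer interferometry. Each pool was mated in three replicate cultures.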

Substitutions are numbered in sequence along the VH above, starting at 1 (not Kabat).
The Kd shown is the geometric mean over detected replicates; a lower Kd is a better binder.
A pair that was not seen in any replicate is written "not detected"; this usually means weak binding, but a binder can also be missed.
For reference, the parent read 72 nM as the reference entry and 7.5 nM as a member of this library.
Three control strains display no target. For library AAYL51, 21% of the pairings with them gave a signal, with a median of 34 µM and one signal in twenty below 1.8 µM, so weak values seen in few replicates may be background. The control count says in how many pairings with the empty strains this scFv gave a signal.

| # | changes | Kd | detected | empty controls |
|---|---|---|---|---|
| 1 | G50Q V99G F106D | not detected | 0 of 3 | 0 of 9 |
| 2 | G26P M34D | not detected | 0 of 3 | 0 of 9 |
| 3 | G50S S63E F106S | 1.8 mM | 1 of 3 | 1 of 9 |
| 4 | Y32P G103F | not detected | 0 of 3 | 0 of 9 |
| 5 | Y32F K65G G102M | not detected | 0 of 3 | 0 of 9 |
| 6 | A33C S52N A61Y | not detected | 0 of 3 | 2 of 9 |
| 7 | Y32M A61M Y108V | not detected | 0 of 3 | 0 of 9 |
| 8 | T28E G50E Y108V | 26 µM | 1 of 3 | 4 of 9 |
| 9 | S55Q Y60E V64L | not detected | 0 of 3 | 0 of 9 |
| 10 | N54V G56C G104K | 93 µM | 2 of 3 | 2 of 9 |
| 11 | D31C I51L V64G | not detected | 0 of 3 | 0 of 9 |
| 12 | S63R G104V | not detected | 0 of 3 | 0 of 9 |
| 13 | G26T F27D Y60S | 2.3 µM | 1 of 3 | 0 of 9 |
| 14 | M34D S55Q D62A | not detected | 0 of 3 | 0 of 9 |
| 15 | T28Q W53M Y105T | 1.5 µM | 2 of 3 | 0 of 9 |
| 16 | M34E S52T G100R | 70 µM | 3 of 3 | 3 of 9 |
| 17 | D30Y S57N S63Q | 140 nM | 3 of 3 | 1 of 9 |
| 18 | G50Q K65N D107P | 100 µM | 1 of 3 | 1 of 9 |
| 19 | G59V S63P V64A | 90 µM | 2 of 3 | 2 of 9 |
| 20 | H35Q G59N R101H | 220 µM | 2 of 3 | 6 of 9 |
| 21 | H35I S63W G103N | not detected | 0 of 3 | 0 of 9 |
| 22 | G26E F27W | 700 µM | 1 of 3 | 5 of 9 |
| 23 | T28D G50P S52P | 250 µM | 2 of 3 | 4 of 9 |
| 24 | Y32P K65P R101I | not detected | 0 of 3 | 1 of 9 |
| 25 | G26S T28Y D62S | not detected | 0 of 3 | 1 of 9 |
| 26 | V99N F106L | 170 nM | 3 of 3 | 0 of 9 |
| 27 | Y32M N54M V64H | 410 µM | 1 of 3 | 4 of 9 |
| 28 | Y60N R101C G104I | not detected | 0 of 3 | 0 of 9 |
| 29 | I51L K65M G104Y | 40 µM | 2 of 3 | 2 of 9 |
| 30 | S55R G56P G102H | 190 µM | 1 of 3 | 2 of 9 |

The remaining entries, values ahead:

| # | Kd | detected | empty controls | changes |
|---|---|---|---|---|
| 31 | not detected | 0 of 3 | 2 of 9 | I51Y D107C |
| 32 | 12 µM | 3 of 3 | 1 of 9 | A61G V64I Y105Q |
| 33 | 37 µM | 1 of 3 | 7 of 9 | Y32N G56Y G103L |
| 34 | 810 µM | 2 of 3 | 3 of 9 | G59D K65T |
| 35 | 730 µM | 1 of 3 | 2 of 9 | F27V S57W G59E |
| 36 | 2.8 mM | 1 of 3 | 3 of 9 | V64D G102K Y105R |
| 37 | not detected | 0 of 3 | 1 of 9 | D31I N54W A61W |
| 38 | 3.2 µM | 2 of 3 | 1 of 9 | I51G G56V Y105A |
| 39 | 22 µM | 3 of 3 | 0 of 9 | D31R I58N Y60T |
| 40 | not detected | 0 of 3 | 0 of 9 | F27I H35I S57P |
| 41 | not detected | 0 of 3 | 2 of 9 | S52A S63R G104H |
| 42 | 1.1 µM | 1 of 3 | 0 of 9 | G56S A61Q D62R |
| 43 | 2.5 µM | 1 of 3 | 2 of 9 | F27H Y32I A61I |
| 44 | 7.1 µM | 1 of 3 | 3 of 9 | A33T V99P |
| 45 | 2.1 µM | 3 of 3 | 5 of 9 | A33N W53D G100K |
| 46 | 460 µM | 1 of 3 | 0 of 9 | D62G V64P G102T |
| 47 | not detected | 0 of 3 | 0 of 9 | S52K G59S G100E |
| 48 | 260 µM | 2 of 3 | 3 of 9 | S52M G102A Y108A |
| 49 | 91 µM | 2 of 3 | 1 of 9 | V64W K65Q Y108P |
| 50 | 33 µM | 2 of 3 | 1 of 9 | I51A V64T G104W |
| 51 | 1.0 µM | 1 of 3 | 4 of 9 | G26F S55E G59C |
| 52 | 2.8 µM | 1 of 3 | 1 of 9 | H35A V99L |
| 53 | 66 µM | 1 of 3 | 4 of 9 | F27Y D107Y Y108T |
| 54 | not detected | 0 of 3 | 0 of 9 | T28V A61F G102R |
| 55 | 110 µM | 2 of 3 | 7 of 9 | F27Y N54G G103V |
| 56 | not detected | 0 of 3 | 1 of 9 | H35P D62F Y105A |
| 57 | 1.1 µM | 3 of 3 | 0 of 9 | W53S G104P Y105S |
| 58 | not detected | 0 of 3 | 2 of 9 | S57C I58N G102D |
| 59 | not detected | 0 of 3 | 1 of 9 | S63E G104P |
| 60 | 26 µM | 3 of 3 | 4 of 9 | M34C G56Q R101C |
| 61 | 65 µM | 3 of 3 | 3 of 9 | N54M K65S G103R |

For reference, 10 entries of the list once more:

{"changes": "G56S A61Q D62R", "Kd": "1.1 µM", "detected": "1 of 3", "empty controls": "0 of 9"}
{"changes": "M34E S52T G100R", "Kd": "70 µM", "detected": "3 of 3", "empty controls": "3 of 9"}
{"changes": "F27I H35I S57P", "Kd": "not detected", "detected": "0 of 3", "empty controls": "0 of 9"}
{"changes": "G50Q V99G F106D", "Kd": "not detected", "detected": "0 of 3", "empty controls": "0 of 9"}
{"changes": "G26T F27D Y60S", "Kd": "2.3 µM", "detected": "1 of 3", "empty controls": "0 of 9"}
{"changes": "F27V S57W G59E", "Kd": "730 µM", "detected": "1 of 3", "empty controls": "2 of 9"}
{"changes": "S52K G59S G100E", "Kd": "not detected", "detected": "0 of 3", "empty controls": "0 of 9"}
{"changes": "H35I S63W G103N", "Kd": "not detected", "detected": "0 of 3", "empty controls": "0 of 9"}
{"changes": "S63E G104P", "Kd": "not detected", "detected": "0 of 3", "empty controls": "1 of 9"}
{"changes": "G26S T28Y D62S", "Kd": "not detected", "detected": "0 of 3", "empty controls": "1 of 9"}

Data: MIT Lincoln Laboratory AlphaSeq set, Engelhart et al. 2022, doi:10.1038/s41597-022-01779-4, as distributed in FLAb.